Laboratory results published in patent US5612476A, “Anti-endotoxin compounds” (priority 1995, dated 1997).

System: HIV LTR
Test: Suppression of LPS-stimulated HIV LTR activation in stably transfected U938 cell line (HIV-1 LTR-CAT)
Details: for example Salmonella typhimurium, in words

SMILES: CCCCCC/C=C\CCCC(=O)O[C@H](CCCCCCCC)CCO[C@@H]1[C@@H](NC(=O)CC(=O)CCCCCCCCCCC)[C@H](OC[C@H]2O[C@H](OP(=O)(O)O)[C@H](NC(=O)CC(=O)CCCCCCCCCCC)[C@@H](OCC[C@H](O)CCCCCCCC)[C@@H]2O)O[C@H](COC)[C@H]1OP(=O)(O)O [Analog B464-32]
- inhibition of activation of the HIV-LTR mediated by LPS of other Gram-negative bacteria: similarly inhibited activation of the HIV-LTR
